Source: patent US20190038714A1, “ANTI-INFLAMMATORY COMPOSITION COMPRISING CLAVASPIRIN PEPTIDE ANALOGUE AS EFFECTIVE INGREDIENT” (INDUSTRY-ACADEMIC COOPERATION FOUNDATION, CHOSUN UNIVERSITY, priority 2015, published 2019)
Values after ≈ are worked out from the molar mass of the structure shown.

Test system: S. aureus
Settings: 24 hours at 37° C.

CC[C@H](C)[C@H](NC(=O)CN)C(=O)NCC(=O)N[C@@H](C)C(=O)N[C@H](C(=O)N[C@@H](CC(C)C)C(=O)N[C@@H](CCCCN)C(=O)N[C@H](C(=O)N[C@@H](CC(C)C)C(=O)N[C@H](C(=O)N[C@H](C(=O)NCC(=O)N[C@@H](CC(C)C)C(=O)N1CCC[C@H]1C(=O)N[C@@H](C)C(=O)N[C@@H](CC(C)C)C(=O)N[C@H](C(=O)N[C@@H](CO)C(=O)N[C@@H](Cc1c[nH]c2ccccc12)C(=O)N[C@H](C(=O)N[C@@H](CCCCN)C(=O)N[C@@H](CCCNC(=N)N)C(=O)N[C@@H](CCCCN)C(=O)N[C@@H](CCCNC(=N)N)C(=O)N[C@@H](CCC(N)=O)C(=O)N[C@@H](CCC(N)=O)C(N)=O)[C@@H](C)CC)[C@@H](C)CC)[C@@H](C)O)[C@@H](C)O)C(C)C)C(C)C [Melittin, melittin]
MIC: 2 µM (≈ 5.69 µg/mL)
